scFv variants of Ab-14 (light chain) against a SARS-CoV-2 spike peptide

From the AlphaSeq antibody data of Li et al. 2023 (doi:10.1038/s41467-023-39022-2), copy in the FLAb collection.

Target peptide (SARS-CoV-2 spike, HR2 region): PDVDLGDISGINAS

Each scFv is VH, three GGGGS repeats, VL, as in the parent Ab-14, and differs from it in the CDRs of the light chain only.
VH: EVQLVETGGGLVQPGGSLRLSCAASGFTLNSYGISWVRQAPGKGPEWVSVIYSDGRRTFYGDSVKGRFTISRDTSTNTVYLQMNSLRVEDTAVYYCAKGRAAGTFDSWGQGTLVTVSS
VL: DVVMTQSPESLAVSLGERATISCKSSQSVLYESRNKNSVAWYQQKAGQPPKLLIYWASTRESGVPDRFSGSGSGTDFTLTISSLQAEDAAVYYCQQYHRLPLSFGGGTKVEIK

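Phage display of a naive human antibody library on the peptide gave the parent. The variants were designed computationally from a first round of random CDR variants and then made and measured. Several design methods are mixed in this list. AlphaSeq pools MATa yeast showing the antibodies with MATalpha yeast showing the peptide. After mating in shaken culture at 30 °C for 16 h, diploids were selected and their barcode pairs sequenced. Scores were corrected for input abundance and mapped to Kd with protein pairs of known affinity run in the same pool. Each pool was mated in six replicate cultures.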

Variants are written as CDR1, CDR2 and CDR3 of the light chain (limits as in the source). Parent: KSSQSVLYESRNKNSVA, WASTRES, QQYHRLPLS.
Variants here have more than six changes.
The Kd shown is the geometric mean over detected replicates; a lower Kd is a better binder.
"not detected" marks a missing value. The strain was present, yet no cells mated with the target were sequenced in any replicate, which points to weak or no binding.
The list is sorted by this average, lowest first, undetected variants last.
Empty control strains, which show no peptide, gave a signal in 4% of pairings with all light chain designs; the median was 430 nM and 95% of these signals were weaker than 38 nM. No background was subtracted.

| CDR-L1 | CDR-L2 | CDR-L3 | Kd (apparent) | detected |
|---|---|---|---|---|
| KLSSSWLMEERNKNSVA | QASQRER | QQYHRLPLS | 480 pM | 6 of 6 |
| NISQMIFTETKNVNNVA | QTSTREE | QDYHRLPLS | 710 pM | 6 of 6 |
| KLEWSDLLESRNKQSVA | NASQRER | QQYHRLPLS | 720 pM | 6 of 6 |
| KMQQSQLYESRMSNAVA | NASQRMS | QQYHRLPLS | 870 pM | 6 of 6 |
| TLTQSVAMESHNKNSVA | DLSTRGS | QQYHRLPLS | 1.1 nM | 6 of 6 |
| TLSDLMYMESRNYNSVA | DLSKRGS | QQYHRLPLS | 1.1 nM | 6 of 6 |
| KMSQSQLYEERNSNAVA | QASQRMS | QQYHRLPLS | 1.3 nM | 6 of 6 |
| KLYENVGTMSHNKQSIA | DMERRED | QQYHRLPLS | 1.4 nM | 6 of 6 |
| NLGQKMALITGQRQQIA | DSTVRED | QQYSRLPLT | 1.5 nM | 6 of 6 |
| KVMQEMLYESRMANSVA | NASQRES | QQYHRLPLS | 1.6 nM | 6 of 6 |
| KLSQLTGHNKMVKNNVA | EMVTREN | QQYNRLPLS | 1.6 nM | 6 of 6 |
| SITQLVAYGSRNKNSVA | QMSTREN | QQYDRLPLS | 1.7 nM | 6 of 6 |
| HISPSFMVESKLKNSVA | QTETRVE | QQYDRLPLA | 1.8 nM | 6 of 6 |
| KLSMITGHMSTIKNNVA | EMETREN | QQYNRLPLA | 1.8 nM | 6 of 6 |
| KLQTLTYTANIGESSVA | DANVHVD | QQYFRLPLS | 1.9 nM | 6 of 6 |
| ALNDVTRMESNKKNSIA | DMSTRES | QQYHRLPLS | 2.0 nM | 6 of 6 |
| KFSQMANQFSVSMNAVA | EMSTRPE | QQYNRLPLS | 2.0 nM | 6 of 6 |
| KLSQSVLFFGHAINNVA | EMETREN | QQYDRLPLS | 2.1 nM | 6 of 6 |
| KIQQSELYEDRVKNSVA | NASDRMS | QQYHRLPLS | 2.2 nM | 6 of 6 |
| KVSEFMRGLMQKTDSIA | DNVTRQN | QQYDRLPLS | 2.7 nM | 6 of 6 |
| TISQLMLYEQRNKNNVA | GTSTRES | QCYHRLPLS | 3.2 nM | 6 of 6 |
| KLGMTLNELMIKKNNVA | DLVEREN | QQYHRLPLS | 3.2 nM | 6 of 6 |
| MIEQGENEDEEHYNSIA | EGHERPR | QQYYKLPLV | 3.3 nM | 6 of 6 |
| HISESMYFQSRNKNNIA | EMSTREY | QHYHRLPLS | 3.5 nM | 6 of 6 |
| TLSQMWGMESRHKNNVA | QESTREK | QQYFRLPIS | 3.6 nM | 6 of 6 |
| KLTHPTDLWLNHVSSIA | DANISVE | QQYYQLPLT | 4.0 nM | 6 of 6 |
| KMQQSNLYESRNCNSVA | NASTRLW | QQYHRLPLS | 4.0 nM | 6 of 6 |
| KLQQADLYESRNANSVA | QASTRSS | QCYHRLPLS | 4.1 nM | 6 of 6 |
| KISMLHNQTFSQSNNVA | EMVTREK | QQYNRLPLS | 4.2 nM | 6 of 6 |
| KITSHIREGTADNNAMA | NADVSND | QQYSRLPLF | 4.7 nM | 6 of 6 |
| KLSQSVGMESRMVNNVA | AASTRED | QQYHRLPLS | 5.0 nM | 6 of 6 |
| NISHFMDVTAKNINNVA | EMTMRER | QQYHHLPLS | 5.6 nM | 6 of 6 |
| KIGMTLNQMMHKKNNVA | DLVMREN | QQYFRLPLS | 6.2 nM | 6 of 6 |
| KLSMLHDYESRNKNSVA | QASTRES | QDYHRLPLS | 6.6 nM | 5 of 6 |
| KIGFTLNMLEHKQNNVA | DLVTREN | QQYHRLPLS | 6.7 nM | 6 of 6 |
| KISQVAMTTGKLKNSVA | NAYNRVQ | QQYHRLPLS | 7.2 nM | 6 of 6 |
| IVSQLMLWGMHVKNSIA | EAETRLN | QQYERLPLF | 7.7 nM | 6 of 6 |
| KLGSMVLLEHGNQNSIA | QQSTREE | QQYDRLPLS | 8.1 nM | 6 of 6 |
| KISQMSTIESIMHNSVA | QTSEREN | QQYDRLPLS | 9.1 nM | 6 of 6 |
| KWSQSVDLESRNDNSVA | AASCRED | QQYHRLPLS | 9.1 nM | 6 of 6 |
| TIQMFLDNLYHNRNNVA | DTSTLGS | QSYDRLPLS | 9.5 nM | 6 of 6 |
| KLSQSDGGESRNPNSVA | HASCRCS | QQYHRLPLS | 9.8 nM | 6 of 6 |
| KGMGSMLYEQRNKNSVA | NASQRES | QQYHRLPLS | 11 nM | 6 of 6 |
| KISGQYRWEQLSKNSIA | EAQTRLK | QQYHRLPLS | 11 nM | 6 of 6 |
| KSSQQVLYEDKMVNSVA | HASQRMS | QQYHRLPLS | 11 nM | 6 of 6 |
| MMSQVTGMGQRHRNNVA | QTSTREA | QQYDRLPLV | 13 nM | 6 of 6 |
| QMKASLLQGIYIKDSVA | QSDIREL | QQYEHLPLS | 13 nM | 6 of 6 |
| MVNGIMDHLSKQTNNVA | ETTTRES | QQYDRLPLT | 14 nM | 6 of 6 |
| NLDKHDYESRQMINAIA | DMSTLMA | QQYASLPLH | 15 nM | 6 of 6 |
| MISQVMGLNNMYKSSVA | QAETRLN | QQYDHLPLS | 24 nM | 6 of 6 |
| NLGFVDDNDNQMMMSVA | DANTVGE | QQYNRLPLA | 38 nM | 6 of 6 |
| KIAMSMNLTSHHINSVA | QSETRED | QQYNHLPLS | 42 nM | 6 of 6 |
| MISQLWNMGQFAINSVA | QASIRNS | QQYDRLPLM | 50 nM | 4 of 6 |
| QLERDALWGANYDYSVA | AQDVALP | QQYFRLPLI | 53 nM | 2 of 6 |
| MISQVMNTLTREGNNVA | DLAEREN | QQYFRLPLS | 79 nM | 4 of 6 |
| MISQLMNMGTFAINSVA | QASIRNE | QQYDRLPLT | 80 nM | 6 of 6 |
| YIAGNSDNLYQNTSSVA | ETNQVRQ | QQYHLLPLA | 110 nM | 6 of 6 |
| KLTKYQYNATSHYQNVA | ESNKVME | QSYYRLPLS | 120 nM | 2 of 6 |
| IFSQSVLMGNLIKNSVA | QASTRFS | QQYHRLPLI | 160 nM | 2 of 6 |
| KMSVHLYDAKNRDMSIA | DEELHTM | QQYNRLPFS | 210 nM | 6 of 6 |
| KLSYSHQVESINKSNVA | EMVTRES | QQYDRLPLS | 240 nM | 6 of 6 |
| HISQSVGMTQFNKNSVA | ENSTREN | QQYDRLPLS | 310 nM | 3 of 6 |
| KLSQFYRMEYRNKNSVA | DNSTRES | QDYDRLPLS | 410 nM | 1 of 6 |
| KLYESIHVESKQKNNVA | DNSTRES | QDYHRLPLS | 430 nM | 4 of 6 |
| TISQAAQQESHNKNSVA | DLNVRGS | QQYDRLPLS | 530 nM | 1 of 6 |
| KLSQYVGGESRNKSSLA | DNSTREN | QQYHRLPLS | 600 nM | 3 of 6 |
| TIGGTLMFGSRNRSNVA | EVSERLN | QQYDRLPLI | 710 nM | 2 of 6 |
| TLTQVTMVESYNKNSVA | QASTRLE | QCYHRLPLS | 1.4 µM | 5 of 6 |
| HITYGMMVHGRHMESIA | QAEERAK | QQYDRLPLA | not detected | 0 of 6 |
| IVSQLMLWGMHVKNSIA | EAQTRLN | QQYDRLPLI | not detected | 0 of 6 |
| TISQSFMMENQFKNSVA | QASTREE | QCYDRLPLS | not detected | 0 of 6 |
| IVSQLMLWGLHAKNSIA | EAQTRLN | QQYDRLPLI | not detected | 0 of 6 |

For reference, 11 entries of the list once more:

CDR-L1,CDR-L2,CDR-L3,Kd (apparent),detected
NISHFMDVTAKNINNVA,EMTMRER,QQYHHLPLS,5.6 nM,6 of 6
KVMQEMLYESRMANSVA,NASQRES,QQYHRLPLS,1.6 nM,6 of 6
KLQQADLYESRNANSVA,QASTRSS,QCYHRLPLS,4.1 nM,6 of 6
KLSSSWLMEERNKNSVA,QASQRER,QQYHRLPLS,480 pM,6 of 6
HITYGMMVHGRHMESIA,QAEERAK,QQYDRLPLA,not detected,0 of 6
IVSQLMLWGMHVKNSIA,EAETRLN,QQYERLPLF,7.7 nM,6 of 6
MIEQGENEDEEHYNSIA,EGHERPR,QQYYKLPLV,3.3 nM,6 of 6
KMSQSQLYEERNSNAVA,QASQRMS,QQYHRLPLS,1.3 nM,6 of 6
MISQLMNMGTFAINSVA,QASIRNE,QQYDRLPLT,80 nM,6 of 6
KGMGSMLYEQRNKNSVA,NASQRES,QQYHRLPLS,11 nM,6 of 6
KLSMITGHMSTIKNNVA,EMETREN,QQYNRLPLA,1.8 nM,6 of 6

Values of this round are not directly comparable with the first-round values of the same sequences.
The authors averaged sequences with at least three values out of six and counted those with two or fewer as poor binders.